# From PubChem BioAssay AID485364 (National Center for Advancing Translational Sciences (NCATS), 2010)
# Several values for one entry are separate records, joined by “and”; a condition that tells them apart may be missing. Identical values can stand only once. Only a part is listed here, and it is no random draw. Some of these compounds have results that are not shown, active ones among them. Activity calls are given as the source filed them. Calls follow the shape of the dose curve; as a rule, active = well fitted inhibition curve with a large enough effect; inconclusive = small, poorly fitted or top-dose-only effect; inactive = no such curve, though single readings can be large or run the other way.
# Biological target: Schistosoma mansoni thioredoxin glutathione reductase (TGR) (UniProt Q962Y6)
# Test: qHTS Assay for the Inhibitors of Schistosoma Mansoni Peroxiredoxins; also: nearly all actives have a fitted effect of over 60% in size
# Conditions: purified TGR, DTNB reduction, TNB absorbance 405 nm; at 114 µM (top of the series)
# From the text: Schistosomiasis is a major neglected tropical disease that currently affects over 200 million. It is caused by different species of flatworms, such as Schistosoma mansoni. Over the last century, drugs to treat the disease have evolved from potassium antimonyl tartrate, artemisinin, oxamniquine, to praziquantel, with praziquantel remaining the universally-used single drug of choice over the past three decades. However, transmission rates have changed little with praziquantel, and there is evidence for the development of drug resistant parasites. Because there is currently no suitable alternative therapy available, there is an urgent need to identify new targets and drugs for schistosomiasis treatment. Thioredoxin glutathione reductase (TGR), one uniquely positioned S. mansoni enzyme, has been identified as a major component of the worms' distinct and compressed antioxidant "firewall". TGR is a multifunctional enzyme that catalyzes the interconversion between reduced and oxidized forms of both glutathione (GSH) and thioredoxins, thus making it an attractive new antiparasitic target. Recently, a quantitative high-throughput screen of the NIH Molecular Libraries Small Molecule Repository (MLSMR, ~71K at the time of the screen in 2007) was performed using an assay that targeted both TGR and peroxiredoxin2 (Prx2, an H2O2-reducing enzymatic component of the S. mansoni redox "firewall") by following the decrease of NADPH fluorescence. […] Additional mechanistic link between exogenous NO donation and parasitic injury for the oxadiazole-2-oxide class of compounds was also expanded and better defined. Although the screen addressed both TGR and Prx2, the assay required post-screen target deconvolution for further characterization of the actives. In addition, the fluorescence assay was also subject to fluorescence interference from compound library members. We have developed a 1536-well-based kinetic HTS assay to address TGR alone. The assay followed the reduction of 5, 5'-dithiobis (2-nitrobenzoic acid) (DTNB) (Ellman's reagent) by NADPH and measured the increase in absorbance at 412 nm of the reaction product, TNB. […] This assay format can be used to screen the current MLSMR collection (with >300K compounds available) to find novel TGR inhibitors. Furoxan is a good choice to serve as a positive control in the primary HTS assay.
# Three microliters of reagents (100 uM NADPH and 20 nM TGR or 100 uM NADPH as no-enzyme control) were dispensed into 1,536-well black clear-bottomed plates. Compounds (23 nL) were transferred via Kalypsys pin tool equipped with 1536-pin array (10 nL slotted pins, V&P Scientific, San Diego, CA). The plates were then be incubated for 15 min at room temperature, and 1 uL aliquot of 500 uM NADPH were added, immediately followed by a 1 uL aliquot of 15 mM DTNB to start the reaction. The plate was transferred to a ViewLux high-throughput CCD imager (Perkin-Elmer, Wellesley, MA) where kinetic measurements of the TNB absorbance were acquired using a 405 excitation filter. Throughout the screen, reagent bottles and all liquid lines were made light-tight to minimize reagent degradation. All screening operations were performed on a fully integrated robotic system (Kalypsys, San Diego, CA) containing one RX-130 and two RX-90 anthropomorphic robotic arms (Staubli, Duncan, SC). Library plates were screened starting from the lowest and proceeding to the highest concentration, and a "double-dipping" step of the highest concentration was required to access higher concentrations of compounds. Vehicle-only plates, with DMSO being pin-transferred to the entire column 5-48 compound area, were inserted uniformly at the beginning and the end of each library in order to monitor for and record any shifts in the background, which can be affected by reagent dispensers or loss in enzyme activity overtime. […]
# % is scaled to controls: 0 for no effect and ±100 for the full control effect.
row,SMILES,"activity change, negative = inhibition"
1,CN(C)c1ccc(C(=O)NCC2(N(C)C)CCCCC2)cc1,inactive: 16.3%
2,CN(C)C1CCCC1OC(=O)C(O)(c1ccccc1)c1ccccc1 (stereo not drawn),inactive: -1.85%
3,Cc1ccccc1C(=O)NCC1(N2CCCCC2)CCCCC1,inactive: -23.7%
4,CN(C)C1(CNC(=O)c2ccccc2[N+](=O)[O-])CCCCC1,inactive: 4.28%
5,CCCCOc1ccccc1C(=O)NCC1(N(C)C)CCCCC1,inactive: -0.628%
6,O=C(NCC1(N2CCCCC2)CCCCC1)c1cc(F)c(F)cc1Cl,inactive: 0.471%
7,C=CCN1CCN(CCOC(=O)C(O)(c2ccccc2)c2ccccc2)CC1,inactive: 1.04%
8,O=C(NCC1(N2CCCCC2)CCCCC1)c1cccc(Br)c1,inactive: -3.58%
9,CCN1CCCC(OC(=O)C2(O)c3ccccc3C=Cc3ccccc32)C1 (stereo not drawn),inactive: -0.392%
10,Cc1cc(C(=O)NCC2(N3CCCCC3)CCCCC2)ccc1[N+](=O)[O-],inactive: 22.1%
11,CCOc1cccc(C(=O)NCC2(N(C)C)CCCCC2)c1,inactive: 42.5%
12,COc1ccc(C(=O)NCC2(N(C)C)CCCCC2)cc1,inactive: -3.77%
13,O=C(NCC1(N2CCCCC2)CCCCC1)c1cc([N+](=O)[O-])ccc1Cl,inactive: -19.8%
14,CN1[C@@H]2CC[C@H]1CC(OC(=O)C(O)(c1ccccc1)c1ccccc1)C2 (stereo partly drawn),inactive: 14.4%
15,CC(C)N1C(=O)CC2(CCN(CCOC(=O)C(O)(c3ccccc3)c3ccccc3)CC2)C1=O,inactive: -0.317%
16,COc1cc(SC)ccc1C(=O)NCC1(N(C)C)CCCCC1,inactive: 6.54%
17,CN(C)C1(CNC(=O)c2cccc(Cl)c2)CCCCC1,inactive: 1.37%

row,SMILES,"activity change, negative = inhibition"
1,CCN(CC)CC(C)C(C)OC(=O)C(O)(c1ccccc1)c1ccccc1 (stereo not drawn),inactive: -10.3%
2,CN(C)C1(CNC(=O)c2ccccc2F)CCCCC1,inactive: 4.55%
3,Cc1ccc(C(=O)NCC2(N3CCCCC3)CCCCC2)cc1,inactive: 4.16%
4,O=C(OC1CN2CCC1CC2)C(CO)(c1ccccc1)c1ccccc1 (stereo not drawn),inactive: -11.9%
5,COc1cccc(C(=O)NCC2(N3CCOCC3)CCCCC2)c1,inactive: 4.46%
6,CC(C)COc1ccc(C(=O)NCC2(N(C)C)CCCCC2)cc1,inactive: 5.05%
7,COc1cc(C(=O)NCC2(N(C)C)CCCCC2)cc(OC)c1OC,inactive: 4.08%
8,Cc1cccc(C(=O)NCC2(N(C)C)CCCCC2)c1,inactive: 2.52%
9,CN(C)c1cccc(C(=O)NCC2(N(C)C)CCCCC2)c1,inactive: 2.7%
10,CC(C)Oc1ccc(C(=O)NCC2(N(C)C)CCCCC2)cc1,inactive: 1.26% and inactive: -7.91%
11,CN(C)C1(CNC(=O)c2ccc(Br)cc2)CCCCC1,inactive: 2.75%
12,COc1cc(C(=O)NCC2(N(C)C)CCCCC2)c([N+](=O)[O-])cc1OC,inactive: 0%
13,COc1ccc(C(=O)NCC2(N(C)C)CCCCC2)cc1Cl,inactive: -0.946%
14,COc1ccc(Cl)cc1C(=O)NCC1(N(C)C)CCCCC1,inactive: 2.61%
15,COc1cccc(C(=O)NCC2(N3CCCCC3)CCCCC2)c1,inactive: -2.35%
16,O=C(NCC1(N2CCCCC2)CCCCC1)c1cccc(Cl)c1,inactive: -2.74%
